The values that follow are results of earlier work, collected in US20240173315A1 (OWP Pharmaceuticals, Inc., priority 2022, published 2024).

The conditions of this data set: humans, oral, taken shortly after ingestion of food.

Where a name gives a salt, the structure may show the parent alone.

Regarding `O=c1n(CCCN2CCN(c3cccc(Cl)c3)CC2)nc2ccccn12` [trazodone hydrochloride], the “effect of food on maximum concentration” value was “decrease” and the “effect of food on time to maximum concentration” value is reported as “lengthening”.
